Experimental data: patent US8183228B2, “Anticoagulant antithrombotic dual inhibitors comprising a biotin label” (MSD OSS B.V. Netherlands, priority 2005, dated 2012)
pIC50: −log10 of the molar value.

System: human platelet rich plasma
Test: Inhibition of human platelet aggregation induced by ADP (PRP)
Type: cell-based
Settings: read-out: IC50, human platelet aggregation induced by 5 μM ADP
Method: The final concentration is 0.38% sodium citrate.
The optical density (OD620) is then measured at 620 nm. […] This is to verify the stability of the platelets (absence of spontaneous platelet aggregation). […] Between two measurements, the plate is shaking for 40 seconds at 1,000 rpm. Each test compound is investigated in at least 2 experiments using PRP from different volunteers.
The mean OD at each compound concentration (including vehicle) is calculated at t=0 min and t=10 min. The percentage inhibition at each concentration is calculated using the formula: […]

SMILES: CCCCS(=O)(=O)N[C@@H](Cc1ccc(OCCCCC2CCNCC2)cc1)C(=O)O [tirofiban, reference compound]
- pIC50: 7.22 to 7.52
